Source: patent publication US8741916B2, “1,3,8-trisubstituted-1,3,8-triaza-spiro[4.5]decan-4-one derivatives as ligands of the ORL-1 receptor” (dated 2014)

Protein sequences, listed by entry. Tags and fused reporters are not part of them.
UniProt P41146, whole entry: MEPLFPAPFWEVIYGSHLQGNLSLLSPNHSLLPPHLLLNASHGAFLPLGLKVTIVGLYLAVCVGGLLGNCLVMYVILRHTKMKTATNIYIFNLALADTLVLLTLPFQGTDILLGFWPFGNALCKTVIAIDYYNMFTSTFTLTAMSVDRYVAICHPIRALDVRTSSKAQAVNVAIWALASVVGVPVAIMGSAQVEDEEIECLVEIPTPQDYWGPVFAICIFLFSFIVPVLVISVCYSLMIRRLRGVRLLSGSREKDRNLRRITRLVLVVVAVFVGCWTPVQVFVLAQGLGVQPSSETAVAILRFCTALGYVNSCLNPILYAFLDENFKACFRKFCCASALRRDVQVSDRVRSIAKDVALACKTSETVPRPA
UniProt P33535, whole entry: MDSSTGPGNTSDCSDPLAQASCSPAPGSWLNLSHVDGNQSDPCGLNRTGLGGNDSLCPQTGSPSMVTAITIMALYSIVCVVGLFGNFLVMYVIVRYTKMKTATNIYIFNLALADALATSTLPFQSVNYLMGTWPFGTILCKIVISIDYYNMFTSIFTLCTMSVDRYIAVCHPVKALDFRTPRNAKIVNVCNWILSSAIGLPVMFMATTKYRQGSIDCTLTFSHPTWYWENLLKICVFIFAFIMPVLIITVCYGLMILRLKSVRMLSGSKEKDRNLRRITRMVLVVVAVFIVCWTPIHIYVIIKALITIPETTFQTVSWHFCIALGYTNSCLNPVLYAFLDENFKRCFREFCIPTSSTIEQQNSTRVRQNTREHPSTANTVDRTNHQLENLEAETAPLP

Columns and labels:
[1] = target: recombinant human nociceptin receptor (ORL-1) (Homo sapiens, UniProt P41146); assay: Nociceptin receptor binding assay ([3H]-nociceptin, HEK293 cell membranes); settings: read-out: ORL1 Ki, mean where tested more than once
Protocol: The nociceptin receptor binding assay measures the binding of [Leucyl-3,4,5-^3H]-nociceptin (90 Ci/mmol, Perkin Elmer) to the recombinant human nociceptin receptor (ORL-1, GeneBank Accession number X77130) on HEK293 cell membranes (Perkin-Elmer).
The cell membranes were thawed, reconstituted and homogenized 1:20 (v/v) in an assay buffer containing 50 mM HEPES, 1 mM EDTA and 10 mM MgCl2 (pH 7.4). To a 96-well plate containing 50 μL/well of compound, 50 μL/well of membranes were added. Some wells contained 5 μM nociceptin to account for nonspecific binding. The radioligand was added at a 0.4 nM concentration in a volume of 100 μL/well. The mixture was incubated for 2 hours at 25° C. Following the incubation period, the samples were collected onto PEI-presoaked, glass-fiber 96-well filter plates using the Filtermate harvester (Perkin-Elmer). Each plate was washed nine times with ice-cold assay buffer to remove free radioligand. After drying, 30 μL/well of Microscint-20 (Perkin-Elmer) were added. The plates were sealed and counted on a Packard Top Count scintillation counter to determine membrane-bound radioactivity.
For each test compound, the total binding was measured at several concentrations and the IC50 (the concentration at which 50% of the binding is inhibited) was determined from the graphical display of X=logarithm of concentration versus Y=response, using the following calculation:
For some of the test compounds, the Ki was determined by nonlinear curve fitting using the Cheng-Prussoff equation: Ki=(IC50)/(+[radioligand]/Kd)
For the ORL-1 binding, the Kd was 0.2 nM. The [radioligand] was the same as the Kd.
Representative compounds of the present invention were tested according to the procedure as described in Example 28 above, with results as listed in Table 3. (Note that for the compounds that were tested more than once, the value listed in Table 3 is the calculated mean.)

Mu opioid receptor = Mu opioid receptor (Rattus norvegicus, UniProt P33535); assay: Rat brain mu opioid receptor binding ([3H]DAMGO); settings: read-out: Mu Ki; rat forebrain membranes; mean where tested more than once

O=C1N(CCCn2cc(CO)nn2)CN(c2ccc(F)cc2)C12CCN([C@@H]1Cc3cccc4cccc1c34)CC2
pKi [1]: < 9.00

O=C1N(CCn2cc(CO)nn2)CN(c2ccc(F)cc2)C12CCN([C@@H]1Cc3cccc4cccc1c34)CC2
pKi (Mu opioid receptor): 8.30
pKi [1]: 9.48

O=C1N(CCn2cc(CO)nn2)CN(c2ccc(F)cc2)C12CCN([C@H]1Cc3cccc4cccc1c34)CC2
pKi [1]: 9.03

O=C1N(CCn2cc(C3CC3)nn2)CN(c2ccc(F)cc2)C12CCN([C@@H]1Cc3cccc4cccc1c34)CC2
pKi (Mu opioid receptor): 8.33
pKi [1]: 9.30

COCc1cn(CCN2CN(c3ccc(F)cc3)C3(CCN([C@H]4Cc5cccc6cccc4c56)CC3)C2=O)nn1
pKi (Mu opioid receptor): 7.75
pKi [1]: 9.43

COCc1cn(CCN2CN(c3ccc(F)cc3)C3(CCN([C@@H]4Cc5cccc6cccc4c56)CC3)C2=O)nn1
pKi (Mu opioid receptor): 8.41
pKi [1]: 10.30

O=C1N(CCn2cc(C3CC3)nn2)CN(c2ccc(F)cc2)C12CCN([C@H]1Cc3cccc4cccc1c34)CC2
pKi [1]: 9.05

O=C1N(CCCn2cc(CO)nn2)CN(c2ccc(F)cc2)C12CCN([C@H]1Cc3cccc4cccc1c34)CC2
pKi (Mu opioid receptor): 8.05
pKi [1]: 9.23

pKi: −log10 of the molar value.
